What follows are compounds tested against T1, MMP-1 (Homo sapiens, UniProt P03956) (assay: biochemical). Conditions: MMP-1 IC50.
T1 sequence (P03956 100-469): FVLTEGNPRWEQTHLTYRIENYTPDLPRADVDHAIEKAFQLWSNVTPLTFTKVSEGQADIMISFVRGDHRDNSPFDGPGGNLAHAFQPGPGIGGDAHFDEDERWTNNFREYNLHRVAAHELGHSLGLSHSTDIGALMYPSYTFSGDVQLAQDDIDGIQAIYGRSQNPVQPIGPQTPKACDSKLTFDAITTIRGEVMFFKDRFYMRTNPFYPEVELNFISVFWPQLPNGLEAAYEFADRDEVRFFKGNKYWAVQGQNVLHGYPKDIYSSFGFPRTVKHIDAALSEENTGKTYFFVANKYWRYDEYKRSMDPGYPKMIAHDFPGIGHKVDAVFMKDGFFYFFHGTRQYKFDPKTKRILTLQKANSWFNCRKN
`COc1ccc(S(=O)(=O)N(Cc2ccccc2)c2c(C(=O)NO)cnc3cc(Br)ccc23)cc1` [Example 14, 4-[Benzyl-(4-methoxy-benzenesulfonyl)-amino]-7-bromo-quinoline-3-carboxylic acid hydroxyamide] was tested, and the IC50 was 108 nM. Compound `COc1ccc(S(=O)(=O)N(Cc2ccccc2)c2c(C(=O)NO)cnc3ccc(C(F)(F)F)cc23)cc1` [Example 15, 4-[Benzyl-(4-methoxy-benzenesulfonyl)-amino]-6-trifluoromethyl-quinoline-3-carboxylic acid hydroxyamide] has an IC50 of 139 nM. `COc1ccc(S(=O)(=O)N(Cc2cccnc2)c2c(C(=O)NO)cnc3cc(C(F)(F)F)ccc23)cc1` [Example 16, 4-[(4-Methoxybenzenesulfonyl)-pyridin-3-ylmethylamino]-7-trifluoromethyl-quinoline-3-carboxylic acid hydroxyamide] gave an IC50 of 99 nM. `COc1ccc(S(=O)(=O)N(Cc2ccccc2)c2c(C(=O)NO)cnc3c(C)cccc23)cc1` [Example 18, 4-[Benzyl-(4-methoxybenzenesulfonyl)-amino]-8-methyl-quinoline-3-carboxylic acid hydroxyamide] showed an IC50 of 152 nM. `CCc1cccc2c(N(Cc3ccccc3)S(=O)(=O)c3ccc(OC)cc3)c(C(=O)NO)cnc12` [Example 19, 4-[Benzyl-(4-methoxybenzenesulfonyl)-amino]-8-ethyl-quinoline-3-carboxylic acid hydroxyamide] showed an IC50 of 194 nM.

From patent US6534491B2, “Preparation and use of ortho-sulfonamido bicyclic heteroaryl hydroxamic acids as matrix metalloproteinase and tace inhibitors” (priority 1996, dated 2003)
